In the data set the test system is Nucleic Acid. Description: Ratio of drug level in cerebrospinal fluid to unbound plasma concentration in Sprague-Dawley rat at 10 mg/kg, sc by LC-MS/MS analysis. The data set is classed as ADME, organism-based. Also on record: dose 10 mg/kg, route subcutaneous. The following applies: in vivo.

Structures are written as SMILES.

Take `CN(C)CCCC1(c2ccc(F)cc2)OCc2cc(C#N)ccc21` (racemic) [CITALOPRAM]: the Ratio worked out at 1.21.

For the origin of these results see ChEMBL document CHEMBL3526130, “An evaluation of using rat-derived single-dose neuropharmacokinetic parameters to project accurately large animal unbound brain drug concentrations” (Drug Metab Dispos, 2012).
